Source: paper PMC9937529, “Mechanism of activation and biased signaling in complement receptor C5aR1” (Cell Research, 2023)

Target: T1, C5aR1 R1754.64A (Homo sapiens, UniProt P21730, R175A)
T1 construct: expressed in transfected cells; host or cells: HEK293
T1 sequence (P21730 1-350 R175A): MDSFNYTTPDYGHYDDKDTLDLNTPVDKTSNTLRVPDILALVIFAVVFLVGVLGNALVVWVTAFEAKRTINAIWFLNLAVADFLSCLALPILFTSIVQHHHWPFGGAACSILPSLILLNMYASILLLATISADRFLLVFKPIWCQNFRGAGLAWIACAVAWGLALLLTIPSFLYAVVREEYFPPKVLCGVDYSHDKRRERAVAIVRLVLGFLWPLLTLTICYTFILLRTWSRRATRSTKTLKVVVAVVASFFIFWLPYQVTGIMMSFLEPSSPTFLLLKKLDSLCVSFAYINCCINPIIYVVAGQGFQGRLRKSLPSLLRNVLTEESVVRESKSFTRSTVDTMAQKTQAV
Assay: cAMP inhibition assay (GloSensor)
Format: cell-based
Conditions: HEK293, 2.5 μM forskolin, mean±SEM, n=3
Protocol: The cDNA sequences of wild-type C5aR1 were cloned into the expression vector pcDNA3.1(+) with a HA signal sequence followed by a Flag tag at the N-terminus. Mutants used in our study were generated by using the Q5 site-Directed Mutagenesis kit (NEB). All the constructs were verified by sanger sequencing. The constructs were transiently expressed in HEK293 cells using PEI transfection reagent (YEASEN, 40816ES02) according to the manufacturer’s instruction. Cells were harvested 48 h post transfection. Cell surface expression levels of receptors were measured by enzyme-linked immunosorbent assay (ELISA).
To measure cAMP inhibition effects on the forskolin-induced cAMP accumulation of C5aR1, the GloSensor cAMP assay (Promega) was performed as described in the previous study.[59] Briefly, Flag-tagged wild-type human C5aR1 was co-expressed with GloSensor plasmid in HEK293 cells in 6-well culture plates. After at least 24 h, transfected cells were harvested and suspended in assay buffer Hank’s Balanced Salt Solution (HBSS) containing 10 mM HEPES, pH 7.4, with an additional 3% v/v dilution of the D-Luciferin-Potassium Salt (YEASEN, 40902ES01). The ligands used in this study were dissolved in H2O to a stock concentration of 10 mM and followed by serial dilution using HBSS solution immediately before ligand stimulation. After incubation at 37 °C for 2 h, cells were stimulated by ligand (diluted in assay buffer containing 2.5 μM forskolin) for 30 min at room temperature. […] Finally, the luminescence signals were counted on the Synergy H1 microplate reader (BioTek). Each measurement was repeated in at least three independent experiments, each in triplicate. Data were processed using the nonlinear regression (curve fit) dose-response function in GraphPad Prism 7 to calculate the values of Emax and EC50.

B1: C5a: 74-amino-acid complement fragment, endogenous agonist; recombinant human C5a, free cysteine replaced by arginine (protein)
chain: TLQKKIEEIAAKYKHSVVKKCCYDGARVNNDETCEQRAARISLGPRCIKAFTECCVVASQLRANISHKDMQLGR
modifications: three intramolecular disulfides; non-glycosylated (E. coli); Trx-His6 tag removed with TEV
- EC50: 0.0131 ± 0.00221 µM
